The results in this text go back to patent US20130040933A1, “AZAINDOLES AS JANUS KINASE INHIBITORS” (priority 2010, published 2013).

Protein sequences, listed by entry. Tags and fused reporters are not part of them. Residues count along the entry.
UniProt P52333, 822-1111 limits assumed: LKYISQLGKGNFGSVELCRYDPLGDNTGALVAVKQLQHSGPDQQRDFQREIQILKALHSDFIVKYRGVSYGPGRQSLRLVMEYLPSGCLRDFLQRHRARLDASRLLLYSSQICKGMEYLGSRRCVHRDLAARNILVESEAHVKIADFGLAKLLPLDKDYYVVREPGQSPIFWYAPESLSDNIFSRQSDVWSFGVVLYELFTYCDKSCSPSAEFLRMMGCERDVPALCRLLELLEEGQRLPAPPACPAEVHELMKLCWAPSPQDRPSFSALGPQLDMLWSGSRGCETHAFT

This assay addresses rhJAK3 (Homo sapiens, UniProt P52333). Kind of assay: JAK Biochemical HTRF Assay (JAK3). Conditions: read-out: rhJAK3 IC50; recombinant purified GST-tagged catalytic domain, HTRF format, [ATP] 1.7 μM. As for the experimental part:
JAK Biochemical HTRF Assay Protocol
The ability of compounds to inhibit the activity of JAK1, JAK2, JAK3, and TYK2 was measured using a recombinant purified GST-tagged catalytic domain for each enzyme (Invitrogen JAK1 #PV4774, JAK2 #PV4210, JAK3 #PV3855, TYK2 #PV4790) in an HTRF format biochemical assay. The reactions employed a common peptide substrate, LCB-EQEDEPEGDYFEWLW-NH2. The basic assay protocol is as follows: First, […] of diluted compounds in DMSO were dispensed into the wells of a dry 384-well Black plate (Greiner #781076) using a Labcyte Echo 555 acoustic dispenser. Subsequent reagent additions employed a Thermo Multidrop Combi nL. Next, 10 μL of 2× enzyme and 2× substrate in 1× assay buffer (Invitrogen kinase buffer #PV3189, 2 mM DTT, 0.05% BSA) were added to the wells and preincubated for 30 min at room temperature to allow compound binding to equilibrate. After equilibration, 10 μl, of 2×ATP in 1× assay buffer was added to initiate the kinase reaction and the plates were incubated at room temperature for 120 min. […] Plates were further incubated 60 min at room temperature with shaking and then read on a Perkin Elmer Envision (λex=337 nm, λem=665 and 615 nm, TRF delay time=20 μs). HTRF signal=10,000*665 nm reading/615 nm reading. After normalization to untreated controls, the percent inhibition of the HTRF signal at each compound concentration was calculated. […]
A general note: In TR-FRET formats the signal depends on donor and acceptor labels being close together.

One may read the IC50 as the point on the concentration scale where inhibition reaches its midpoint. On to `CC(C)[C@@H](Nc1cncc(-c2c[nH]c3ncc(C(=O)O)cc23)n1)C(=O)NCC(F)(F)F`, for which the IC50 was in the range of 100 to 1000 nM.
